In patent publication EP4831160A1, “TRISUBSTITUTED QUINAZOLINE DERIVATIVE, ACID ADDITION SALT THEREOF, AND PHARMACEUTICAL COMPOSITION AND USE THEREOF” (dated 2026):

Tests used:
[1] = system: BT-474 human breast cancer cell line; test: In vivo efficacy study, subcutaneous BT-474 xenograft, p.o. QD×21; details: 20 mg/kg, at the end of treatment, share of mice
[2] = Systematic characterization of different salt crystal forms (comparison of properties); details: for solid stability: impurity RRT= 0.29 / solid stability: impurity RRT= 0.78 / solid stability: impurity RRT= 0.89 / solid stability: purity / solid stability: impurity RRT= 0.36 / solid stability: impurity RRT= 0.19: sealed centrifuge tube, kept at RT; for solid stability: impurity RRT= 0.36 / solid stability: impurity RRT= 0.19: ND: not detected
[3] = Pharmacokinetics in rats, intravenous and oral administration
[4] = Systematic characterization of free base crystal forms (comparison of properties); details: for solid stability: purity / solid stability: RRT= 0.29 / solid stability: RRT= 0.36 / solid stability: RRT= 0.62 / solid stability: RRT= 0.64 / solid stability: RRT= 0.78 / solid stability: RRT= 0.89 / solid stability: RRT= 0.91: sealed centrifuge tube, kept at RT; for solid stability: RRT= 0.29: impurity at RRT 0.29; for solid stability: RRT= 0.36: impurity at RRT 0.36; for solid stability: RRT= 0.62: impurity at RRT 0.62; for solid stability: RRT= 0.64: impurity at RRT 0.64; for solid stability: RRT= 0.89: impurity at RRT 0.89; for solid stability: RRT= 0.91: impurity at RRT 0.91
[5] = Solid stability study by HPLC (purity by area normalization); details: after 21 days at room temperature
[6] = impurity at RRT 0.78, at day 23
[7] = second value printed with "+" below the RRT 0.78 value, at day 23

| SMILES | solid stability: impurity RRT= 0.29 ([2]; at day 0) [%] | solid stability: impurity RRT= 0.78 ([2]; at day 0) [%] | solid stability: impurity RRT= 0.89 ([2]; at day 0) [%] | solid stability: purity ([2]; at day 0) [%] | solid stability: purity ([4]; at day 0) [%] | solid stability: purity ([4]; at day 23) [%] | solid stability: RRT= 0.29 ([4]; at day 0) [%] | solid stability: RRT= 0.29 ([4]; at day 23) [%] | solid stability: RRT= 0.36 ([4]; at day 0) [%] | solid stability: RRT= 0.36 ([4]; at day 23) [%] | solid stability: RRT= 0.62 ([4]; at day 0) [%] | solid stability: RRT= 0.62 ([4]; at day 23) [%] | solid stability: RRT= 0.64 ([4]; at day 0) [%] | solid stability: RRT= 0.64 ([4]; at day 23) [%] | solid stability: RRT= 0.78 ([4]; impurity at RRT 0.78, at day 0) [%] | solid stability: RRT= 0.78 [4, 6] [%] | solid stability: RRT= 0.89 ([4]; at day 0) [%] | solid stability: RRT= 0.89 ([4]; at day 23) [%] | solid stability: RRT= 0.91 ([4]; at day 0) [%] | solid stability: RRT= 0.91 ([4]; at day 23) [%] | also measured |
| --- | --- | --- | --- | --- | --- | --- | --- | --- | --- | --- | --- | --- | --- | --- | --- | --- | --- | --- | --- | --- | --- |
| CCOc1cc2ncc(C#N)c(Nc3ccc(OCc4ccccn4)c(Cl)c3)c2cc1NC(=O)/C=C/CN(C)C | – | – | – | – | – | – | – | – | – | – | – | – | – | – | – | – | – | – | – | – | mice that achieved complete tumor regression [1]: 87.5% |
| CCOc1cc2ncnc(Nc3ccc(Oc4ccc(F)cc4)cc3)c2cc1NC(=O)/C=C/CN(C)C.Cc1ccc(S(=O)(=O)O)cc1 | 0.04 | 0.07 | 0.07 | 99.33 | – | – | – | – | – | – | – | – | – | – | – | – | – | – | – | – | solid stability: impurity RRT= 0.36 ([2]; at day 0): 0.01%; solid stability: impurity RRT= 0.29 ([2]; at day 24): 0.06%; solid stability: impurity RRT= 0.78 ([2]; at day 24): 0.19%; solid stability: impurity RRT= 0.89 ([2]; at day 24): 0.07%; solid stability: impurity RRT= 0.36 ([2]; at day 24): 0.02% |
| CCOc1cc2ncnc(Nc3ccc(Oc4ccc(F)cc4)cc3)c2cc1NC(=O)/C=C/CN(C)C.Cl | 0.05 | 0.05 | 0.06 | 99.66 | – | – | – | – | – | – | – | – | – | – | – | – | – | – | – | – | solid stability: impurity RRT= 0.36 ([2]; at day 0): 0.01%; solid stability: impurity RRT= 0.29 ([2]; at day 24): 0.05%; solid stability: impurity RRT= 0.78 ([2]; at day 24): 0.05%; solid stability: impurity RRT= 0.89 ([2]; at day 24): 0.07%; solid stability: purity ([2]; at day 24): 99.66% |
| CCOc1cc2ncnc(Nc3ccc(Oc4ccc(F)cc4)cc3)c2cc1NC(=O)/C=C/CN(C)C.O=C(O)/C=C/C(=O)O | 0.04 | 0.05 | 0.07 | 99.67 | – | – | – | – | – | – | – | – | – | – | – | – | – | – | – | – | solid stability: impurity RRT= 0.29 ([2]; at day 24): 0.30%; solid stability: impurity RRT= 0.78 ([2]; at day 24): 0.05%; solid stability: impurity RRT= 0.89 ([2]; at day 24): 0.07%; solid stability: purity ([2]; at day 24): 99.51% |
| CCOc1cc2ncnc(Nc3ccc(Oc4ccc(F)cc4)cc3)c2cc1NC(=O)/C=C/CN(C)C.O=S(=O)(O)O | 0.06 | 0.06 | 0.07 | 99.61 | – | – | – | – | – | – | – | – | – | – | – | – | – | – | – | – | Solubility (25 °C, 30 min) EtOH ([2]; EtOH, 25 °C, 30 min, mostly printed as mass of sample / volume of solvent): <100 µg/mL; solid stability: impurity RRT= 0.29 ([2]; at day 24): 0.06%; solid stability: impurity RRT= 0.78 ([2]; at day 24): 0.08%; solid stability: impurity RRT= 0.89 ([2]; at day 24): 0.07%; solid stability: purity ([2]; at day 24): 99.54% |
| COc1cc2ncnc(Nc3ccc(Oc4ccc(F)cc4)cc3)c2cc1NC(=O)/C=C/CN(C)C | – | – | – | – | – | – | – | – | – | – | – | – | – | – | – | – | – | – | – | – | Rat IV 1 mpk AUC0-t ([3]; rat, IV, 1 mpk): 240 (h*ng/mL); F% ([3]; rat, bioavailability, oral 10 mpk vs IV 1 mpk): 48%; Rat Oral 10 mpk AUC0-t ([3]; rat, oral, 10 mpk): 1152 (h*ng/mL); Cmax ([3]; rat, route not printed in the row, stands below the Rat Oral 10 mpk row): 73.5 ng/mL; bioavailability ([3]; rats, oral vs intravenous): 48% |
| CCOc1cc2ncnc(Nc3ccc(Oc4ccc(F)cc4)cc3)c2cc1NC(=O)/C=C/CN(C)C [free base crystal form F-1] | – | – | – | – | 99.61 | 99.61 | 0.06 | 0.06 | 0.02 | 0.01 | 0.03 | 0.03 | 0.05 | 0.05 | 0.06 | 0.08 | 0.04 | 0.05 | 0.035 | 0.03 | moisture absorption% (80% RH for 24h) [4]: 0.09% |
| CCOc1cc2ncnc(Nc3ccc(Oc4ccc(F)cc4)cc3)c2cc1NC(=O)/C=C/CN(C)C [free base crystal form F-3] | – | – | – | – | 99.70 | 99.68 | 0.07 | 0.08 | 0.02 | 0.04 | 0.03 | 0.03 | 0.04 | 0.04 | 0.02 | 0.03 | 0.03 | 0.03 | 0.02 | 0.01 | moisture absorption% (80% RH for 24h) [4]: 0.04% |
| CCOc1cc2ncnc(Nc3ccc(Oc4ccc(F)cc4)cc3)c2cc1NC(=O)/C=C/CN(C)C [free base crystal form F-4] | – | – | – | – | 99.68 | 99.65 | 0.06 | 0.06 | 0.02 | 0.01 | 0.01 | 0.03 | 0.04 | 0.04 | 0.02 | 0.03 | 0.07 | 0.05 | 0.07 | 0.02 | solid stability: RRT= 0.78 [4, 7]: +0.01% |
| CCOc1cc2ncnc(Nc3ccc(Oc4ccc(F)cc4)cc3)c2cc1NC(=O)/C=C/CN(C)C [free base crystal form F-5] | – | – | – | – | 99.13 | 99.06 | 0.01 | 0.02 | 0.01 | 0.00 | 0.53 | 0.53 | 0.05 | 0.07 | 0.12 | 0.08 | 0.07 | 0.04 | 0.07 | 0.03 | solid stability: RRT= 0.78 [4, 7]: +0.06% |
| CCOc1cc2ncnc(Nc3ccc(Oc4ccc(F)cc4)cc3)c2cc1NC(=O)/C=C/CN(C)C [free base crystal form F-6] | – | – | – | – | 99.66 | 99.63 | 0.04 | 0.03 | 0.01 | 0.00 | 0.03 | 0.06 | 0.05 | 0.05 | 0.05 | 0.05 | 0.06 | 0.04 | 0.06 | 0.02 | solid stability: RRT= 0.78 [4, 7]: +0.01% |
| CCOc1cc2ncnc(Nc3ccc(Oc4ccc(F)cc4)cc3)c2cc1NC(=O)/C=C/CN(C)C.O=C(O)/C=C\C(=O)O [maleate crystal form B] | – | – | – | – | – | – | – | – | – | – | – | – | – | – | – | – | – | – | – | – | solid stability: impurity RRT= 0.36 ([2]; at day 0, maleate): 0.06%; solid stability: impurity RRT= 0.29 ([2]; at day 0, maleate): 0.07%; solid stability: impurity RRT= 0.78 ([2]; at day 0, maleate): 0.07%; solid stability: impurity RRT= 0.89 ([2]; at day 0, maleate): 0.08%; solid stability: purity ([2]; at day 0, maleate): 99.48%; solid stability: impurity RRT= 0.36 ([2]; at day 24, maleate): 0.06%; solid stability: impurity RRT= 0.29 ([2]; at day 24, maleate): 0.07%; solid stability: impurity RRT= 0.78 ([2]; at day 24, maleate): 0.07%; solid stability: impurity RRT= 0.89 ([2]; at day 24, maleate): 0.08%; solid stability: purity ([2]; at day 24, maleate): 99.49% |
| CCOc1cc2ncnc(Nc3ccc(Oc4ccc(F)cc4)cc3)c2cc1NC(=O)/C=C/CN(C)C.O=C(O)/C=C\C(=O)O [maleate crystal form C] | – | – | – | – | – | – | – | – | – | – | – | – | – | – | – | – | – | – | – | – | solid stability: impurity RRT= 0.19 ([2]; at day 0): 0.08%; solid stability: impurity RRT= 0.36 ([2]; at day 0, maleate): 0.01%; solid stability: impurity RRT= 0.29 ([2]; at day 0, maleate): 0.06%; solid stability: impurity RRT= 0.78 ([2]; at day 0, maleate): 0.08%; solid stability: impurity RRT= 0.89 ([2]; at day 0, maleate): 0.07%; solid stability: purity ([2]; at day 0, maleate): 99.43%; solid stability: impurity RRT= 0.19 ([2]; at day 24): 0.16%; solid stability: impurity RRT= 0.36 ([2]; at day 24, maleate): 0.03%; solid stability: impurity RRT= 0.29 ([2]; at day 24, maleate): 0.06%; solid stability: impurity RRT= 0.78 ([2]; at day 24, maleate): 0.08%; solid stability: impurity RRT= 0.89 ([2]; at day 24, maleate): 0.07%; solid stability: purity ([2]; at day 24, maleate): 98.79%; solid stability [5]: obvious degradation |
